For orientation: EC50 means the concentration that produces a half-maximal response.

Amino acid sequences for entries named in this document (tags omitted). Residues count along the entry.
UniProt P43220, 24-463 limits assumed: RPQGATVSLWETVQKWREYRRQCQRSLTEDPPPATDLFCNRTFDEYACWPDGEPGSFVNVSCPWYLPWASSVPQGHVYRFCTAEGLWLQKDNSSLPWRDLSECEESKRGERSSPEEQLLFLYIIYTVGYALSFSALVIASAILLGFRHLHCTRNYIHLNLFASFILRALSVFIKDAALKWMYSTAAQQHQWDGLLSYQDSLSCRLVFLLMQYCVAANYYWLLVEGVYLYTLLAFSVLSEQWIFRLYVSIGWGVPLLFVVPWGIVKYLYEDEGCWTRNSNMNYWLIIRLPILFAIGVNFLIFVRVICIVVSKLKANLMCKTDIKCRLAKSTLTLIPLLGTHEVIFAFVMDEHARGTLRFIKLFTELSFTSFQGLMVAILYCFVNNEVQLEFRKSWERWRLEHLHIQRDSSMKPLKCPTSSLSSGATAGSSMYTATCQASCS

The results in this text go back to patent US12617783B2, “Heterocyclic GLP-1R agonists” (BIOMEA FUSION, INC., priority 2024, dated 2026).

The assay has as its target human GLP-1R (Homo sapiens, UniProt P43220). The assay can be described thus: GLP-1R cAMP assay (Example B1a, HTRF, 30 min at room temperature). The following applies: cAMP accumulation in HEK293 expressing human GLP-1R, no BETP, 30 min room temperature (Method B1a, compounds ID 1-609), Table 1.
Consider `Cc1cc(-n2nc3c(c2-n2ccn(-c4ccc5c(cnn5C)c4F)c2=O)[C@@H]2CC[C@H](C3)N2C(=O)c2cc3oc(C4CCOC(C)(C)C4)nc3n2[C@@]2(c3noc(=O)[nH]3)C[C@@H]2C)cc(C)c1F` (stereo partly drawn), for which the EC50 was > 10 µM.

For the compound `Cc1cc(-n2nc3c(c2-n2ccn(-c4ccc5c(ncn5C)c4F)c2=O)[C@@H]2CC[C@H](C3)N2C(=O)c2cc3cc([C@H]4CCOC(C)(C)C4)ccc3n2C2(c3noc(=O)[nH]3)CC2)cc(C)c1F`, the EC50 is > 10 µM.

In turn, `Cc1cc(-n2nc3c(c2-n2ccn(-c4ccc5c(cnn5CCN5CCOCC5)c4F)c2=O)[C@@H]2CC[C@H](C3)N2C(=O)c2cc3cc([C@H]4CCOC(C)(C)C4)ccc3n2[C@@]2(c3noc(=O)[nH]3)C[C@@H]2C)cc(C)c1F` had an EC50 of 2.04 µM.
